Laboratory results: BindingDB's records for doi:10.1073/pnas.96.13.7563 (St. Bartholomew's and The Royal London School of …, 1999)

Chains of the proteins cited; added tags and fusions are not shown.
UniProt P23219, whole entry: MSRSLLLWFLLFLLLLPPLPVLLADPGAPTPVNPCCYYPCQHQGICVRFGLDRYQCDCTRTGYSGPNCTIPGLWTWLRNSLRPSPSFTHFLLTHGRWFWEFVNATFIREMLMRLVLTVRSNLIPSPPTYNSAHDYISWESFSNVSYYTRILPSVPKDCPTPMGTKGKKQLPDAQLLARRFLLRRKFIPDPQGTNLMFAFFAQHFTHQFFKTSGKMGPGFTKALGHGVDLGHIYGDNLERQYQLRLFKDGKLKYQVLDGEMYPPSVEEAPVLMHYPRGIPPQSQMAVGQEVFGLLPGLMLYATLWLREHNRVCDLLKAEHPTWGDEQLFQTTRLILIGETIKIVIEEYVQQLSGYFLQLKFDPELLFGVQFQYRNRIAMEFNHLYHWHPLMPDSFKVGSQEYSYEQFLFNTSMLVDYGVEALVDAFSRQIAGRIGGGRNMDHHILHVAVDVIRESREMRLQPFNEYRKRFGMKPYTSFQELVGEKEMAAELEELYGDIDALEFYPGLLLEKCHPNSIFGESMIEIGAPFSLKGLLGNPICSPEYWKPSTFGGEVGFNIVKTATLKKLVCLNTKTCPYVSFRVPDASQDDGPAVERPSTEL

Target: Prostaglandin G/H synthase 1 (Homo sapiens, UniProt P23219)

Ki: > 10 µM
Compound: Oc1ccc(/C=C/c2cc(O)cc(O)c2)cc1 [5-[(E)-2-(4-hydroxyphenyl)ethenyl]benzene-1,3-diol]
